Reference: patent publication US12637487B2, “Combination product comprising dicycloplatin and preparation method and use thereof” (priority 2017, dated 2026)

Test system: Hepatitis C virus (HCV type 2a, JFH1-Luc virus strain)
Conditions: Huh7.5.1 cells

Dicycloplatin [MD36792]
selection index SI (SI=CC50/EC50): 1.54
